Experimental data taken from ChEMBL document CHEMBL1138837, “Structure-activity study on the Phe side chain arrangement of endomorphins using conformationally constrained analogues” (J Med Chem, 2004).
pKi: −log10 of the molar value.

Amino acid sequences for entries named in this document (tags omitted).
UniProt P33535, whole entry: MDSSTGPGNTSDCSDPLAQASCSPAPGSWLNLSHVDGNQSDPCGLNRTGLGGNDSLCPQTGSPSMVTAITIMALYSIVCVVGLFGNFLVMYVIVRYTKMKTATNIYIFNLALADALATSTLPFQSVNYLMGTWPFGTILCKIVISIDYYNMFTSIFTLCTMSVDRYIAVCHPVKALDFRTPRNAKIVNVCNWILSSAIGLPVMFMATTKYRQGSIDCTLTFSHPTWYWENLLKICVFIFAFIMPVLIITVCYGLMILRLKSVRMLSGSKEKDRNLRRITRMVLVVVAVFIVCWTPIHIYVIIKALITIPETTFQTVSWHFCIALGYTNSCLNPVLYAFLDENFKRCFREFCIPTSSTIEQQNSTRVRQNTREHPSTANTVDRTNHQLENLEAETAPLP
UniProt P33533, whole entry: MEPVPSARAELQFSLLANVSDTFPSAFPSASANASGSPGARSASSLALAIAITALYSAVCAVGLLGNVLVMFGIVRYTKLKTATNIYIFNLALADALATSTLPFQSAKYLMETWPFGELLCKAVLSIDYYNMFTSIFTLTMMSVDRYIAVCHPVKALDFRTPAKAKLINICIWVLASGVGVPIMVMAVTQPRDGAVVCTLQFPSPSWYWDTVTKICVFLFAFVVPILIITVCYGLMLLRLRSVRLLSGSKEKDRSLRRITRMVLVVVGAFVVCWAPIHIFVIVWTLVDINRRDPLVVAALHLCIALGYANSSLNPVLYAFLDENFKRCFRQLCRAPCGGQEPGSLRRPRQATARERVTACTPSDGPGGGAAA

Key:
Format in all cases: cell membranes, Membrane
Mu-type opioid receptor [1] = molecular target: T1, Mu-type opioid receptor (Rattus norvegicus, UniProt P33535); assay: Displacement of [3H]endomorphin-2 from Opioid receptor mu 1 of rat brain membranes
Mu-type opioid receptor [2] = molecular target: T1, Mu-type opioid receptor; assay: Displacement of [3H]DAMGO from Opioid receptor mu 1 of rat brain membranes
[3] = molecular target: Delta-type opioid receptor (Rattus norvegicus, UniProt P33533); assay: Displacement of [3H]Ile5,6-deltorphin II from opioid receptor delta 1 of rat brain membranes

Row | SMILES | pKi (Mu-type opioid receptor [1]) | pKi (Mu-type opioid receptor [2]) | pKi [3]
1 | C[C@H](c1ccccc1)[C@H](NC(=O)[C@@H]1CCCN1C(=O)[C@@H](N)Cc1ccc(O)cc1)C(=O)N[C@@H](Cc1ccccc1)C(N)=O | 7.46 | 6.97 | –
2 | C[C@@H](c1ccccc1)[C@@H](NC(=O)[C@H](Cc1c[nH]c2ccccc12)NC(=O)[C@@H]1CCCN1C(=O)[C@@H](N)Cc1ccc(O)cc1)C(N)=O | – | – | 6.13
3 | C[C@@H](c1ccccc1)[C@@H](NC(=O)[C@@H]1CCCN1C(=O)[C@@H](N)Cc1ccc(O)cc1)C(=O)N[C@@H](Cc1ccccc1)C(N)=O | < 5.00 | 5.31 | –
4 | C[C@@H](c1ccccc1)[C@H](NC(=O)[C@H](Cc1c[nH]c2ccccc12)NC(=O)[C@@H]1CCCN1C(=O)[C@@H](N)Cc1ccc(O)cc1)C(N)=O | – | – | 6.25
5 | C[C@H](c1ccccc1)[C@@H](NC(=O)[C@H](Cc1c[nH]c2ccccc12)NC(=O)[C@@H]1CCCN1C(=O)[C@@H](N)Cc1ccc(O)cc1)C(N)=O | – | – | 5.84
6 | C[C@H](c1ccccc1)[C@@H](NC(=O)[C@@H]1CCCN1C(=O)[C@@H](N)Cc1ccc(O)cc1)C(=O)N[C@@H](Cc1ccccc1)C(N)=O | 5.16 | 5.15 | –
7 | C[C@H](c1ccccc1)[C@H](NC(=O)[C@H](Cc1c[nH]c2ccccc12)NC(=O)[C@@H]1CCCN1C(=O)[C@@H](N)Cc1ccc(O)cc1)C(N)=O | – | – | 5.33
8 | C[C@@H](c1ccccc1)[C@H](NC(=O)[C@@H]1CCCN1C(=O)[C@@H](N)Cc1ccc(O)cc1)C(=O)N[C@@H](Cc1ccccc1)C(N)=O | 7.14 | 7.34 | –
